Only a part is listed here, and it is no random draw. The source made the active and inactive calls.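 How the source made its calls: active means activation of at least 50% relative to the plate's high and low controls in the primary single-dose screen; inactive means activation below 50%.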

A short description of this test: compounds producing H2O2 with reducing agent – biochemical, NIH compound library profiling, artefact control for MLSCN library redox annotation, primary screen (AID 878).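 Further: compound incubated with DTT at 0.8 mM final as the reducing agent.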 The settings on record: DTT-dependent redox cycling H2O2, phenol red/HRP absorbance; at 10 µM; stronger effect = higher value; 100% = 100 µM peroxide control, 0% = buffer.
In the case of `COc1ccccc1OP(=O)(Nc1ccc(C)cn1)Oc1ccccc1OC`, the activation was inactive: -0.29%.

Take `CN1CCCC(OC(=O)C(c2ccccc2)c2ccccc2)C1` (centres undefined): the activation was inactive: -4.24%.

`Clc1ccc(Cl)c(NC2=NCC(CBr)S2)c1` (centres undefined): the activation was inactive: 0.96%.

Take `NC(=O)c1cc([N+](=O)[O-])cc([N+](=O)[O-])c1N`: the activation was inactive: -0.36%.

With `Cc1ccc(N/C(=N/P(=O)(N2CCOCC2)N2CCOCC2)N2CCOCC2)cc1`, the activation was inactive: -0.28%.

Consider `CC(C)CC(=O)NC(Sc1ccc(Cl)cc1)C(Cl)(Cl)Cl` (centres undefined), for which the activation is inactive: 2.05%.

Consider `Oc1ccccc1CNc1ccccn1`, for which the activation is inactive: 0.08%.

Consider `O=C(NC(Sc1ccncn1)C(Cl)(Cl)Cl)c1ccccc1` (centres undefined), for which the activation was inactive: -0.17%.

Consider `Cc1c2non([O-])c-2c(C)[n+](=O)[n+]1[O-]`, for which the activation was inactive: -0.71%.

For the compound `Cc1cc(SC(NC(=O)c2ccc(F)cc2)C(Cl)(Cl)Cl)ncn1` (centres undefined), the activation was inactive: 0.41%.

On to `CCOP(=O)(Nc1ccccc1)OCC`, for which the activation is inactive: -11%.

In the case of `CCN(N=Nc1nonc1N)c1nonc1N`, the activation was inactive: -0.13%.

For `O=[N+]([O-])c1ncn(CCn2ncnc2[N+](=O)[O-])n1`, the activation was inactive: -0.38%.

For the compound `O=[N+]([O-])c1cccc2n[nH]nc12`, the activation is inactive: -0.28%.

In the case of `CC(=O)N1C2C3N(C(C)=O)C1C1N(C(C)=O)C(C(N1C(C)=O)N3C(C)=O)N2C(C)=O`, the activation was inactive: 8.68%.

With `Cc1ccc(NP(=O)(Oc2ccccc2)Oc2ccccc2)nc1`, the activation is inactive: -1.98%.

In the case of `CCc1nc2c(n1)c1c(non1O)c1c2no[n+]1[O-]`, the activation was inactive: 0.16%.

Turning to `O=[N+]([O-])c1cc([N+](=O)[O-])c(CCNc2ccccc2)c([N+](=O)[O-])c1`, the activation was inactive: -0.99%.

`COc1ccc(C2=NCC(CBr)S2)cc1` (centres undefined): the activation is inactive: 9.98%.

Turning to `CC(C)=N/N=C(\N)N[N+](=O)[O-]`, the activation was inactive: -0.33%.

As for `CN(C)C(=O)OCCc1n(C)cc[n+]1C`, the activation was inactive: -0.07%.

As for `CC1CCN(C(=O)Oc2c(Cl)cc(Cl)c3cccnc23)CC1`, the activation is inactive: 0.97%.

Consider `CCN(/C(=N/P(=O)(N1CCOCC1)N1CCOCC1)N1CCOCC1)c1ccc(OC)cc1`, for which the activation was inactive: 0.35%.

On to `c1nnnn1CCn1cnnn1`, for which the activation is inactive: -0.41%.

With `CC(C)C(=O)NC(Sc1ccccc1)C(Cl)(Cl)Cl` (centres undefined), the activation was inactive: 0.43%.

With `O=P(Nc1nccs1)(c1ccccc1)c1ccccc1`, the activation was inactive: -0.06%.

For `O=P(Nc1ccccn1)(c1ccc(Br)cc1)c1ccc(Br)cc1`, the activation is inactive: 0.35%.

On to `C(Cc1nn[nH]n1)Cc1nn[nH]n1`, for which the activation is inactive: -0.21%.

For the compound `O=C(OC1CN2CCC1CC2)c1cccc(Cl)c1` (centres undefined), the activation is inactive: -1.7%.

`CC(=O)NC(SC(=S)N(C)C)C(Cl)(Cl)Cl` (centres undefined): the activation is inactive: -0.01%.

`CCNC(=S)/N=C(\N)N[N+](=O)[O-]`: the activation is inactive: -0.13%.

For the compound `O=C(NC1CCS(=O)(=O)C1)NP(=S)(Oc1ccccc1)Oc1ccccc1` (centres undefined), the activation was inactive: 0.01%.

`c1ccc(-c2nn[nH]n2)c(-c2nn[nH]n2)c1`: the activation was inactive: -1.2%.

As for `CCOC(=O)NC(Sc1ccccc1)C(Cl)(Cl)Cl` (centres undefined), the activation is inactive: -4.95%.

On to `O=c1c2cc([N+](=O)[O-])ccc2[nH]c2c([N+](=O)[O-])cc([N+](=O)[O-])cc12`, for which the activation is inactive: -1.11%.

Regarding `COC(=O)c1cc2c(s1)N=C(c1ccccc1)N(C)P2(=O)N1CCOCC1` (centres undefined), the activation was inactive: 0.76%.

For the compound `Cc1ccc(OP(=O)(Nc2ccccn2)Oc2ccc(C)cc2)cc1`, the activation was inactive: -0.21%.

Turning to `CC(=O)NC(SC(=S)N(CC(C)C)CC(C)C)C(Cl)(Cl)Cl` (centres undefined), the activation was inactive: -0.16%.

On to `CCC(=O)N1C2C3N(C(=O)CC)C1C1N(C(=O)CC)C(C(N1C(=O)CC)N3C(=O)CC)N2C(=O)CC`, for which the activation is inactive: 19.3%.

On to `CC(C)(C)C(=O)NC(Sc1ccccc1)C(Cl)(Cl)Cl` (centres undefined), for which the activation was inactive: -0.18%.

As to `O=P1(Nc2nc3ccc(Cl)cc3s2)COc2ccccc2O1` (centres undefined), the activation was inactive: -1.98%.

For the compound `CCOc1ccc(C2=NCC(CBr)S2)cc1` (centres undefined), the activation was inactive: -0.02%.

For the compound `CC(=O)Nc1ccc(Oc2c([N+](=O)[O-])cc([N+](=O)[O-])cc2[N+](=O)[O-])cc1`, the activation is inactive: -1.53%.

Take `Cc1cccc(OCC(=O)OC2CN3CCC2CC3)c1` (centres undefined): the activation is inactive: 0.06%.

As to `COc1cc(C(=O)NCC2(N3CCOCC3)CCCCC2)cc(Cl)c1OC(C)C`, the activation is inactive: 0.35%.

For the compound `COc1cc(C2NCCC3(OCCO3)C2(C)C)cc(OC)c1OC` (centres undefined), the activation is inactive: 2.42%.

On to `CCOP(=O)(Nc1cccc2ccccc12)OCC`, for which the activation is inactive: -0.56%.

Take `Cc1ccc(NCCc2c([N+](=O)[O-])cc([N+](=O)[O-])cc2[N+](=O)[O-])cc1`: the activation is inactive: -0.34%.

Turning to `CCOP1(=S)c2c(C)nn(CCC#N)c2N=C(c2ccccc2F)N1C` (centres undefined), the activation is inactive: 2.98%.

For the compound `O=P(Nc1nccs1)(Oc1ccccc1)Oc1ccccc1`, the activation was inactive: -0.34%.

`O=P(Nc1nccs1)(c1ccccc1)c1nc2ccccc2s1` (centres undefined): the activation is inactive: -2.53%.

`O=[N+]([O-])c1ccc2c(c1)nnn2O`: the activation is inactive: -16.2%.

Turning to `CCOP1(=S)c2c(C)nn(CCC#N)c2N=C(c2ccc(F)cc2)N1C` (centres undefined), the activation was inactive: 1.65%.

For the compound `CN(C)C1(CNC(=O)c2ccc(S(C)(=O)=O)cc2)CCCCC1`, the activation was inactive: 0.28%.

Regarding `Cc1nn(-c2ccccc2)c2c1P(=O)(N1CCOCC1)N(C)C(c1ccccc1)=N2` (centres undefined), the activation is inactive: 0.99%.

On to `CC1CCC(C(C)C)C(OP(=O)(Nc2ccccn2)c2ccccc2)C1` (centres undefined), for which the activation is inactive: -0.45%.

Turning to `Cc1ccc(OCC(=O)OC2CN3CCC2CC3)cc1` (centres undefined), the activation is inactive: 1.08%.

For `O=P1(Nc2ccc(Br)cn2)COc2ccccc2OC1`, the activation is inactive: -0.68%.

For `O=P1(Nc2ncccn2)COc2ccccc2OC1`, the activation was inactive: -0.64%.

Take `Clc1n[nH]nc1-c1nn[nH][15n]1`: the activation was inactive: -0.00911%.

In the case of `O=P1(Nc2ccccn2)COc2ccccc2OC1`, the activation was inactive: 0.09%.

As for `CC1(CBr)Cn2c(nc3ccccc3c2=O)S1` (centres undefined), the activation was inactive: 0.68%.

In the case of `CC(C)/C=N\N=C(\N)N[N+](=O)[O-]`, the activation is inactive: -0.72%.

As for `O=C(COc1ccccc1)OC1CN2CCC1CC2` (centres undefined), the activation is inactive: -0.74%.

With `COP1(=S)c2c(C)nn(CCC#N)c2N=C(c2ccc(F)cc2)N1C` (centres undefined), the activation is inactive: 2.94%.

`CCC(C)N(CC(C)C)C(=S)SC(NC(C)=O)C(Cl)(Cl)Cl` (centres undefined): the activation was inactive: 0.07%.

On to `Cc1cc(SC(NC(=O)c2ccccc2)C(Cl)(Cl)Cl)nc(C(C)C)n1` (centres undefined), for which the activation is inactive: 0.46%.

For `O=P(Nc1ccccn1)(c1cccc2ccccc12)c1cccc2ccccc12`, the activation is inactive: -0.08%.

Turning to `Cc1cc(SC(NC=O)C(Cl)(Cl)Cl)ncn1` (centres undefined), the activation was inactive: -0.33%.

Consider `Cc1ccc2nc3c(c(C)c2c1)CC(C(Cl)Cl)S3` (centres undefined), for which the activation is inactive: 0.4%.

On to `CC(C)NC(=O)NP(=O)(Oc1ccccc1)Oc1ccccc1`, for which the activation was inactive: 0.47%.

As for `CCN(CC)C(=S)SC(NC=O)C(Cl)(Cl)Cl` (centres undefined), the activation was inactive: -7.93%.

On to `O=[N+]([O-])c1cc([N+](=O)[O-])c(-c2ccn[nH]2)s1`, for which the activation is inactive: 0.03%.

With `ClCCSc1nnc(-c2cccnc2)o1`, the activation was inactive: -2.96%.

With `COc1ccc2nc(NP(=O)(c3ccccc3)c3ccccc3)sc2c1`, the activation is inactive: -0.22%.

On to `O=C(OC1CN2CCC1CC2)C12CC3CC(CC(C3)C1)C2` (centres undefined), for which the activation was inactive: -0.83%.

On to `Cc1cc(=O)[nH]c(N[N+](=O)[O-])n1`, for which the activation was inactive: 0.23%.

On to `Cc1c2c(nc3ccccc13)SC(C(Cl)Cl)C2` (centres undefined), for which the activation is inactive: -0.09%.

For the compound `COc1ccc(N/C(=N/P(=O)(N2CCOCC2)N2CCOCC2)N2CCOCC2)cc1`, the activation was inactive: 0.03%.

Values taken from PubChem BioAssay AID878 (University of Pittsburgh Molecular Library Screening Center, 2007).
